# From US20140371162A1, “COMBINATION THERAPY COMPRISING SGLT INHIBITORS AND DPP4 INHIBITORS” (MITSUBISHI TANABE PHARMA CORPORATION, priority 2008, published 2014)
# System: plasma active GLP-1 level
# Assay: Plasma active GLP-1 level in glucose-loaded normal (DPP4-positive) rats, Example 4
# Conditions: rat, in vivo, 10 mg/kg
compound,measurement,value
"N[C@@H](CC(=O)N1CCn2c(nnc2C(F)(F)F)C1)Cc1cc(F)c(F)cc1F [Compound H, Sitagliptin phosphate, reference compound]",GLP-1 concentration at 2 hr after oral administration,4.1 ± 0.5 pM
